The values below come from patent publication US10974036B2, “Implantable device for long-term delivery of drugs” (Delpor, Inc., priority 2009, dated 2021).

Converted amounts (≈) assume the structure as drawn.

For data set [1] the following is noted: cited from earlier work.
The nature of a further data set: in vivo. The conditions noted are these: human, plasma, iv.
For data set [2] the following is noted: cited from earlier work. The source holds these as a separate data set.
A short description of another data set: physchem. The conditions noted are these: water, pH 7.4, aqueous buffer.

As for `Cc1cc2c(s1)Nc1ccccc1N=C2N1CCN(C)CC1` [Olanzapine, olanzapine], the “Half-life” value in data set [1] (in vivo) was 45 h. Moreover, in data set [1], the “CL(L/hr) (iv)” value was 21 L/h. The clearance in “in vivo” was 350 mL/min.

Turning to `Cc1nc2n(c(=O)c1CCN1CCC(c3noc4cc(F)ccc34)CC1)CCCC2` [Risperidone, risperidone], the equilibrium concentration result (pH 6.8 (FIG. 6 projection)) is “about 1.5 mg/mL”. Where the note is “pH 7.4”, the aqueous solubility is recorded as ~0.42 mg/mL (≈ 1020 µM). The “Water solubility (mg/mL) neutral pH” value in data set [2] is recorded as 0.48 mg/mL. The “CL(L/hr) (iv)” value in data set [1] was 2.84 L/h. For the same compound, the Bioavailability oral in data set [1] (oral) was 65%. Besides, the clearance in “in vivo” was 47.2 mL/min. In the data set “physchem”, the solubility was ~0.42 mg/mL (≈ 1020 µM).
